Drawing on ChEMBL document CHEMBL1123179, “4-Amino-2-(substituted methyl)-2-butenoic acids: substrates and potent inhibitors of gamma-aminobutyric acid aminotransferase” (J Med Chem, 1986), this text covers Km for 2 substances.

In data set [1] the test system is NCCCC(=O)O. The conditions noted are these: Bacteria.
The test system of a further data set is NC/C=C(\CF)C(=O)O. As to the kind of experiment: (§1) Compound was tested for the inhibitory effect against Gamma-amino-N-butyrate transaminase from pig brain, activity expressed as Km. To be noted: Sus scrofa.
The subject of data set [2] is NCCCC(=O)O. The data set is described as §1. The conditions noted are these: Sus scrofa.

Take “4-aminobutyrate aminotransferase, mitochondrial (Homo sapiens), P80404”: the Michaelis constant (Km) (usually the substrate concentration at which the rate is half of its maximum) in the data set on NCCCC(=O)O [1] is 1400 µM.

Consider “4-aminobutyrate aminotransferase, mitochondrial (Sus scrofa), P80147”, for which the Km in the data set with NC/C=C(\CF)C(=O)O amounted to 130 µM; with NCCCC(=O)O [2], 1300 µM.
